The values below come from US8026252B2 (priority 2005, dated 2011).

Protein sequences, listed by entry. Tags and fused reporters are not part of them. Lines headed by an entry give the natural chain unless they say otherwise; changes in a name come on top.
UniProt P35372, whole entry, looked up: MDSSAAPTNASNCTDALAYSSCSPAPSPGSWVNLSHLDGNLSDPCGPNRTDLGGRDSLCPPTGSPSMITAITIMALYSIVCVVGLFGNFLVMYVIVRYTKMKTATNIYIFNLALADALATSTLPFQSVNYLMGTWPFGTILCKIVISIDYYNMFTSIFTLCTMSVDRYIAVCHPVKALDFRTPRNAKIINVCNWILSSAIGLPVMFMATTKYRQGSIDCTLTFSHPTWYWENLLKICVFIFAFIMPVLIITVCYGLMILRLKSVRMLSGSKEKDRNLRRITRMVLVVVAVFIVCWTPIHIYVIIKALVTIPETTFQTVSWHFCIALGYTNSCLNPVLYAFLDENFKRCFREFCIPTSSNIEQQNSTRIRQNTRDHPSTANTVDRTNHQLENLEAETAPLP
UniProt P41145: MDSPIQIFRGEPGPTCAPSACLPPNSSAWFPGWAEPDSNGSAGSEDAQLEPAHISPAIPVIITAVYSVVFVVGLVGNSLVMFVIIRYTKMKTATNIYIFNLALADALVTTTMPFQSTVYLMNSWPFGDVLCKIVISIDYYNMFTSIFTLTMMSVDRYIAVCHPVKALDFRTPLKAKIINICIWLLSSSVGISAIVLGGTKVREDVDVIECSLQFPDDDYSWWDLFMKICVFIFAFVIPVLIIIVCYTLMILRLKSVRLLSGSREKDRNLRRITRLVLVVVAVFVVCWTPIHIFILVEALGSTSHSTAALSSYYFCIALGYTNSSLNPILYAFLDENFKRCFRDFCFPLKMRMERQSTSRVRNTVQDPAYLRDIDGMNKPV

The target in one assay is human δ opioid receptor (Homo sapiens, UniProt P41143). Nature of the assay: Opioid receptor binding, [3H]naltrindole (δ), CHO cell membranes. The conditions noted are these: read-out: [3H]Naltrindole (δ), Table 3 other opioid parents, mean ± SEM, unit inferred.
The target of the next assay is human μ opioid receptor (Homo sapiens, UniProt P35372). The conditions noted are these: read-out: [3H]DAMGO (μ), Table 3 other opioid parents, mean ± SEM, unit inferred.
The next assay deals with human κ opioid receptor (Homo sapiens, UniProt P41145). Nature of the assay: Opioid receptor binding, [3H]U69,593 (κ), CHO cell membranes. The conditions noted are these: read-out: [3H]U69,593 (κ), Table 3 other opioid parents, mean ± SEM, unit inferred.

Regarding `COC12CCC3(CC1C(C)(O)C(C)(C)C)C1Cc4ccc(C(=O)NCCc5ccc(-c6ccccc6)cc5)c5c4C3(CCN1CC1CC1)C2O5` (single isomer, unassigned), the Ki at human δ opioid receptor worked out at 16 nM; at human μ opioid receptor, 1.3 nM; at human κ opioid receptor, 120 nM.
